{"source": "paper PMC11289455", "about": "(Scientific Reports, 2024)", "experiment": "Rat pharmacokinetic and tissue distribution study, oral dosing", "conditions": "male Sprague-Dawley rats, 10 mg/kg oral, n=4/timepoint, LC-MS/MS", "method": "Table S2. […] Plasma, small intestine, colon, and colon contents were sampled at terminal time points. Tissues and content were homogenized in buffer (1:1 PBS:ethanol with EDTA-free protease inhibitor tablets [Roche]). All samples were analyzed using LC-MS/MS.", "data": [{"smiles": "CC(=O)NCCCC[C@@H]1NC(=O)[C@H](Cc2c[nH]c3c(C)cccc23)NC(=O)[C@H]([C@@H](C)O)NC(=O)[C@H](CC(N)=O)NC(=O)[C@@H](NC(C)=O)C(C)(C)SSC(C)(C)[C@@H](C(=O)N[C@@H](Cc2ccc(OCCN)cc2)C(=O)N[C@@H](Cc2ccc3ccccc3c2)C(=O)NC2(C(=O)N[C@@H](CCC(=O)O)C(=O)N[C@@H](CC(N)=O)C(=O)N[C@@H](Cc3cccnc3)C(=O)N(C)CC(N)=O)CCOCC2)NC1=O", "note": "[JNJ-77242113, S^3,1,S^3,6-cyclo[N-acetyl-3-sulfanyl-L-valyl-L-asparaginyl-L-threonyl-7-methyl-L-tryptophyl-N^6-acetyl-L-lysyl-3-sulfanyl-L-valyl-O-(2-aminoethyl)-L-tyrosyl-3-(naphthalen-2-yl)-L-alanyl-4-aminooxan-4-carbonyl-L-α-glutamyl-L-asparaginyl-3-(pyridin-3-yl)-L-alanyl-N^2-methylglycinamide]]", "values": [{"measurement": "AUClast, SI mucosa", "value": "27,100 ng·hr/g"}, {"measurement": "AUClast, SI mucus", "value": "105,000 ng·hr/g"}, {"measurement": "Cmax, SI mucosa", "value": "12,800 ng/g"}, {"measurement": "Cmax, SI mucus", "value": "58,500 ng/g"}, {"measurement": "Tmax, SI mucosa", "value": 1, "unit": "h"}, {"measurement": "Tmax, SI mucus", "value": 1, "unit": "h"}, {"measurement": "AUClast, SI (small intestines)", "setting": "tissue homogenate", "value": "4,950 ng·hr/g"}, {"measurement": "Cmax, SI (small intestines)", "setting": "tissue homogenate", "value": "2,090 ng/g"}, {"measurement": "Tmax, SI (small intestines)", "setting": "tissue homogenate", "value": 1, "unit": "h"}]}]}
